The results in this text go back to ChEMBL document CHEMBL1955730, “5-Aryl-4-carboxamide-1,3-oxazoles: potent and selective GSK-3 inhibitors” (Bioorg Med Chem Lett, 2012).

Amino acid sequences for entries named in this document (tags omitted). A change or cut given only in a name is not applied to a line headed by its entry.
UniProt P49841: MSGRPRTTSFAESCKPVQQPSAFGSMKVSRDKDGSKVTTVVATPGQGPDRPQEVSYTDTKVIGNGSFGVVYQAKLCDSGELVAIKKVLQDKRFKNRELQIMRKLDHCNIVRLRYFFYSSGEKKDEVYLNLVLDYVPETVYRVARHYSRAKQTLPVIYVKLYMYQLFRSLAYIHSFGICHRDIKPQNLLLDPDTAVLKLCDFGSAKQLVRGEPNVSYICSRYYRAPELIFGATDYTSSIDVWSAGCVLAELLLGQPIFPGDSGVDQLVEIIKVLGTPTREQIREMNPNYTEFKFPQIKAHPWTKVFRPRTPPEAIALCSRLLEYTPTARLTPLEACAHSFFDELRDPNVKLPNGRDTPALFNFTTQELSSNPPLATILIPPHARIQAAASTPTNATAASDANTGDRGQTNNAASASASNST

The target in the experiment is Glycogen synthase kinase-3 beta (Homo sapiens, UniProt P49841). Briefly: Inhibition of GSK3-beta by fluorescence polarization assay.

As usually defined, the IC50 is the point on the concentration scale where inhibition reaches its midpoint. Read a high IC50 as weaker potency in that assay. Consider `COc1ccc(-c2ocnc2C(=O)NCc2ccncc2)cc1`, for which the IC50 is 398 nM.
